In patent US20240100181A1 (AbbVie / Abbott, published 2024):

What was measured:
human CD19 [1] = target: T1, human CD19 (human, UniProt P15391 20-556); assay: flow cytometry on Raji (BL) cells, endogenous CD19; average of two experiments
T1 construct: whole, on cells; also called hu-CD19; cellular CD19
T1 sequence (looked up): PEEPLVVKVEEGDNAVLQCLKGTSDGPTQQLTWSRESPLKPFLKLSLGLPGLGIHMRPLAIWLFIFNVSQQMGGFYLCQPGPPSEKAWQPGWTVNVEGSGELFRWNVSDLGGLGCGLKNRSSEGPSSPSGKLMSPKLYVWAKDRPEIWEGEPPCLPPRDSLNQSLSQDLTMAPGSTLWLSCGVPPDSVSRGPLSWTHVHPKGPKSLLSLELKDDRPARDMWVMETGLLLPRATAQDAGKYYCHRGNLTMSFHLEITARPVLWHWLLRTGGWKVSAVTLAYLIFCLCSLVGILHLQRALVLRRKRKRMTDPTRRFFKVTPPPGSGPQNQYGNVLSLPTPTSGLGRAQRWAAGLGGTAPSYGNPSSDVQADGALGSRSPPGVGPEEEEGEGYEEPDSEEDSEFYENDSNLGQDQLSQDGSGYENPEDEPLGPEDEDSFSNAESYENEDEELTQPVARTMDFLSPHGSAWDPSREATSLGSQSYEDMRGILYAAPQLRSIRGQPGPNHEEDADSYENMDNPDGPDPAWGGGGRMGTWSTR

human CD19 [2] = target: T1, human CD19; assay: flow cytometry on RS4; 11 (ALL) cells, endogenous CD19; average of two experiments
human CD19 [3] = target: T1, human CD19; assay: flow cytometry on SUP-B15 (ALL) cells, endogenous CD19; average of two experiments
human CD19 [4] = target: T1, human CD19; assay: flow cytometry on OCI-LY19 (DLBCL) cells, endogenous CD19; average of two experiments
human CD19 [5] = target: T1, human CD19; assay: flow cytometry on 293T cells engineered with full-length human CD19; average of two experiments

B1: ADC-1 (CD19 Phosphorylated GRM agonist ADC: CD19 mAb conjugated to the drug linker of Formula V) (other)
heavy: EVQLVESGGGLVQPGGSLRLSCAASGFTFTTYWINWVRQAPGKGLEWIGNIYPSDSYTNYNQKFKDRATLSVDKSKNTAYLQMNSLRAEDTAVYYCTREDYYGSSSYYAMDYWGQGTLVTVSSASTKGPSVFPLAPSSKSTSGGTAALGCLVKDYFPEPVTVSWNSGALTSGVHTFPAVLQSSGLYSLSSVVTVPSSSLGTQTYICNVNHKPSNTKVDKKVEPKSCDKTHTCPPCPAPELLGGPSVFLFPPKPKDTLMISRTPEVTCVVVDVSHEDPEVKFNWYVDGVEVHNAKTKPREEQYNGSTYRVVSVLTVLHQDWLNGKEYKCKVSNKALPAPIEKTISKAKGQPREPQVYTLPPSREEMTKNQVSLTCLVKGFYPSDIAVEWESNGQPENNYKTTPPVLDSDGSFFLYSKLTVDKSRWQQGNVFSCSVMHEALHNHYTQKSLSLSPGK
light: AILMTQSPSSLSASVGDRVTITCKASQDVGTAVAWYQQKPGKAPKLLIYWASTRHTGVPSRFSGSGSGTDFTLTISSLQPEDFATYYCQQYSTYPLTFGQGTKVEIKRTVAAPSVFIFPPSDEQLKSGTASVVCLLNNFYPREAKVQWKVDNALQSGNSQESVTEQDSKDSTYSLSSTLTLSKADYEKHKVYACEVTHQGLSSPVTKSFNRGEC
modifications: zero or one phosphate-GRM drug linker molecule (Formula V) attached via cysteine -S-; cysteine position not stated; afucosylated at ASN-300 (EU: ASN-297); zero, one, two or three phosphate-GRM drug linker molecules (Formula V, Ala-Ala linker) attached via cysteine -S-; cysteine positions not stated
notes: also called CD19-GRM; CD19 GRM agonist ADC
Q: B1 was tested. Which EC50 (human CD19 [1]) did it give?
A: Its EC50 is 0.939 nM.

Q: And the EC50 (human CD19 [2])?
A: The EC50 was 0.544 nM.

Q: What about the EC50 (human CD19 [3]) of the same binder?
A: The EC50 was 0.928 nM.

Q: And the EC50 (human CD19 [4])?
A: Its EC50 is 1.06 nM.

Q: What about the EC50 (human CD19 [5]) of the same binder?
A: Its EC50 is 1.09 nM.
